Measured values from patent US20260167620A1, “MULTIFUNCTIONAL COMPOUND CAPABLE OF DEGRADING BTK KINASE, AND COMPOSITION AND USE” (HANGZHOU HEALZEN THERAPEUTICS CO., LTD., priority 2021, published 2026).

Amino acid sequences for entries named in this document (tags omitted).
UniProt Q06187, whole entry: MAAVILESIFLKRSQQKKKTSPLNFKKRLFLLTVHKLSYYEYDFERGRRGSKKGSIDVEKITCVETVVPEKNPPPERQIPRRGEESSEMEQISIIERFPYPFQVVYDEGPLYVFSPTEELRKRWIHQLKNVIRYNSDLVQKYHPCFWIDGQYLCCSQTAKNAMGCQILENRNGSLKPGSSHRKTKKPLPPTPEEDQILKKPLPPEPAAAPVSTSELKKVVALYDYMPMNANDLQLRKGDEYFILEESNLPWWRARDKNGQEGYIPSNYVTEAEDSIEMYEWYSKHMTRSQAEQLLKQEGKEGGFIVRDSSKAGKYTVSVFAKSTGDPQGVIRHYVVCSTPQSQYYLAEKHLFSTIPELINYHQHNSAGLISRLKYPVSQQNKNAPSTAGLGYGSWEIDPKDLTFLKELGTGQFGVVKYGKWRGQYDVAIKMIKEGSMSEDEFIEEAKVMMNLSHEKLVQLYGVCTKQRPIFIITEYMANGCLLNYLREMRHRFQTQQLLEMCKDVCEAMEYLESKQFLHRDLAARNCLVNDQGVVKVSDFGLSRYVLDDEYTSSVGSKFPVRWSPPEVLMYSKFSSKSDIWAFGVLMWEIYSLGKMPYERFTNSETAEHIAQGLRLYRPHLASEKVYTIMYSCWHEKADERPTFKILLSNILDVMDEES

Tests used:
BTK = BTK (Homo sapiens, UniProt Q06187); test: BTK degradation activity test in Mino cells (Westernblot or Elisa); format: cell-based; conditions: 24-72 h incubation
Method: The Mino cell line cells are 0.5˜1 million/well in 6-well plates. The compounds are diluted to different concentrations, added to the plate, and after 24-72 h of incubation, the cells are collected. After the cells were lysed, the total protein concentration in each well was determined with a BCA kit. The amount of BTK is determined using the Westernblot or Elisa method.

[1] = Liver microsomal metabolic stability, human; conditions: human liver microsomes, NADPH, 37° C.
Method: (§1) Under the condition of ice bath, 1 mg of human or Mouse liver microparticles was add to PBS (1 mL) buffer, then NADPH (20 μL) was added, and incubated at 37° C. for 5 min. 10 μL of the compound to be tested was added, then suck several times with a pipette and divide into 3 aliquots of 330 μL; each and then samples were taken at 0, 15, 30, 60 and 120 min respectively. 10 μL of the solution was taken with a pipette each time and added to 490 μL of the solution containing the internal standard compound. The resulting solution was vortexed and then placed on ice, and then sampling at another time point continues. All samples were centrifuged at 10,000 rpm for 10 min, and the supernatant was taken for LC/MS testing. The metabolism of the compound in liver microsomes was calculated based on the peak area.

Mouse absorption test = conditions: mice, intragastric 10 mg/kg, plasma
Method: (§2) Experimental method: mice were used as experimental animals, and drugs were administered intragastrically at 10 mg/kg (5% DMSO+5% Solutol+90% saline). The blood collection time points for intragastric administration were 0.25, 0.5, 1, 2, 4, 6, 8, and 24 h. 0.3 ml of whole blood was taken, and 0.1 ml of plasma was taken after centrifugation and analyzed by LC-MS.

[2] = Liver microsomal metabolic stability, mouse; conditions: mouse liver microsomes, NADPH, 37° C.
Method: as §1

OCI-LY10 cells = test: Inhibitory activity on OCI-LY10 cell proliferation (MTS); conditions: read-out: OCI-ly10 IC50, 72 h or 168 h
Method: (§3) The anti-tumor efficacy of the compounds was tested by measuring their inhibitory effects on OCI-LY10 and Mino cell proliferation. OCI-LY10 and Mino cells were cultured in RPM-1640 medium containing […] fetal calf serum. OCI-LY10 and Mino cells were digested, inoculated in a 96-well plate at a cell concentration of 10000 cells/well, and incubated overnight at 37° C., 5% CO2. Compounds of different concentrations (1000 nM, 4-fold dilution, 8 points) were added to the 96-well plate and incubated for 72 h or 168 h at 37° C. and […], and then 20 μL of MTS was added to each well. After incubation for 2 h, 25 μl of 10% SDS was added to each well to terminate the reaction. The absorbance at 490 nm and 650 nm were measured with a microplate reader. IC50 was calculated using GraphPad Prism 5.0.

Rat absorption test = conditions: SD rats, intragastric 10 mg/kg, plasma
Method: as §2, with “SD Rats” for “Experimental method: mice”, “Solutol+90% normal” for “Solutol+90%”

Mino cells = test: Inhibitory activity on Mino cell proliferation (MTS); conditions: read-out: Mino IC50, 72 h or 168 h
Method: as §3

| DC50 (BTK) | Thalf (min) Human [1] | DNAUC (Mouse absorption test) | Thalf (min) Mouse [2] | IC50 (OCI-LY10 cells) | DNAUC (Rat absorption test) | SMILES | IC50 (Mino cells) |
| --- | --- | --- | --- | --- | --- | --- | --- |
| < 10 nM | 12.4 min | 1088 AUC (h*ng/mL)/dose (mg/kg) | 47.1 min |  |  | CN1CCN([C@@H]2CCCN(c3cnc(C(N)=O)c(Nc4ccc(C5CCN(C[C@H]6CCN(c7ccc8c(c7)C(=O)N(C7CCC(=O)NC7=O)C8=O)C6)CC5)cc4)n3)C2)C1=O (some centres unmarked) |  |
| < 10 nM |  |  |  | 11 nM | 164 AUC (h*ng/mL)/dose (mg/kg) | NC(=O)c1ncc(N2CCCCC2)nc1Nc1ccc(C2CCN(C[C@@H]3CCN(c4ccc5c(c4)C(=O)N(C4CCC(=O)NC4=O)C5=O)C3)CC2)cc1 (some centres unmarked) | 10.6 nM |
